Experimental data as given in PubChem BioAssay AID1276 (Columbia University Molecular Screening Center, 2008).
This is a selection; strong and weak results do not stand in their true shares. Active and inactive are the calls of the source.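 How the source made its calls: active means activation above a set limit, based on mean plus 3 SD of controls (cut at about 140% in these data); inconclusive means one replicate above the limit, the other below; inactive means the rest.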

Assay: APP 5'UTR reporter signal increase – luciferase, SH-SY5Y cells, primary screen (AID 1276)
Settings: SH-SY5Y APP 5'UTR luciferase reporter, luminescence; at 2 µM; hits give high values; zero percent = DMSO vehicle wells

| Compound | activation |
| --- | --- |
| O=[N+]([O-])c1cc([N+](=O)[O-])c(Nc2ccccn2)c([N+](=O)[O-])c1 | inactive: -16.9% |
